# Data from publication PMC11744766, “Dual Inhibitors of SARS-CoV-2 3CL Protease and Human Cathepsin L Containing Glutamine Isosteres Are Anti-CoV-2 Agents” (Journal of the American Chemical Society, 2025).
# Target: SARS-CoV-2 3CL protease (3CL-PR) (Severe acute respiratory syndrome coronavirus 2, UniProt P0DTC1)
# Test: biochemical
compound,measurement,value
COc1cccc2[nH]c(C(=O)NC(CC(C)C)C(=O)NC(C=O)Cc3cccnc3)cc12 (stereo not shown) [Compound 7],Ki,6.2 ± 0.2 µM
